# Patent US9694016B2 (Novartis AG, priority 2013, dated 2017)
# Sequences of proteins named here, by UniProt entry; tags and fusion partners are left off.
# UniProt P04049, whole entry Y340E/Y341E: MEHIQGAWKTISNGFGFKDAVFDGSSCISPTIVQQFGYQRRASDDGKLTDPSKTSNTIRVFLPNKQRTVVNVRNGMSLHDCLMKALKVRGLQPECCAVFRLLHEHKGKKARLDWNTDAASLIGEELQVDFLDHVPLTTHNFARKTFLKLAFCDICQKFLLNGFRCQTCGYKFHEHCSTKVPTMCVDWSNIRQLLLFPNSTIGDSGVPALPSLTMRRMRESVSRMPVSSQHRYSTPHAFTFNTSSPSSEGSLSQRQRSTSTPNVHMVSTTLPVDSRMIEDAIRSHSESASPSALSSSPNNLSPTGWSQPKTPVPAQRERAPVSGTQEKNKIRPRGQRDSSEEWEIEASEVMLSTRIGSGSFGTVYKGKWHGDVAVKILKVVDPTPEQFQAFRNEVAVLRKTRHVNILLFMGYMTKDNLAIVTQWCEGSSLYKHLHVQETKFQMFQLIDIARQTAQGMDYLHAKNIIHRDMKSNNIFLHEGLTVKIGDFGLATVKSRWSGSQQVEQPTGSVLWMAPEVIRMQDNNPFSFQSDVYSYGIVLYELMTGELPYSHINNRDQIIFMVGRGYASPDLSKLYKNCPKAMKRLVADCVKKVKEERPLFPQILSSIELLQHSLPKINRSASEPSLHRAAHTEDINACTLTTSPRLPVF
# Biological target: C-Raf FL (full-length C-Raf protein, Y340E and Y341E activating mutations) (Homo sapiens (Human), UniProt P04049, Y340E/Y341E)
# Assay type: biochemical
# Conditions: Table 2; AlphaScreen, 1 hour reaction; read-out: c-Raf FL IC-50
row,Structure (SMILES),IC50 [nM]
1,"CCOc1ncc(-c2cc(NC(=O)c3cc(C4CC4)on3)cnc2C)cc1N1CCOCC1 [Example 245, 5-cyclopropyl-N-(6′-ethoxy-2-methyl-5′-morpholino-[3,3′-bipyridin]-5-yl)isoxazole-3-carboxamide]",0.6
2,"CCOc1ncc(-c2cc(NC(=O)c3ccnc(C(F)(F)F)c3)cnc2C)cc1N1CCOCC1 [Example 246, N-(6′-ethoxy-2-methyl-5′-morpholino-[3,3′-bipyridin]-5-yl)-2-(trifluoromethyl)isonicotinamide]",0.6
3,"CCOc1ncc(-c2cc(NC(=O)c3ccnc(C(F)F)c3)cnc2C)cc1N1CCOCC1 [Example 247, 2-(difluoromethyl)-N-(6′-ethoxy-2-methyl-5′-morpholino-[3,3′-bipyridin]-5-yl)isonicotinamide]",0.6
4,"Cc1ncc(NC(=O)c2cc(CN(C)C)cc(C(F)(F)F)c2)cc1-c1cnc(C#N)c(N2CCOCC2)c1 [Example 249, N-(6′-cyano-2-methyl-5′-morpholino-[3,3′-bipyridin]-5-yl)-3-((dimethylamino)methyl)-5-(trifluoromethyl)benzamide]",3.6
5,"Cc1ncc(NC(=O)c2ccnc(C(C)C)c2)cc1-c1cnc(C#N)c(N2CCOCC2)c1 [Example 251, N-(6′-cyano-2-methyl-5′-morpholino-[3,3′-bipyridin]-5-yl)-2-isopropylisonicotinamide]",0.5
6,"CCOc1ncc(-c2cc(NC(=O)c3ccnc(C(C)C)c3)cnc2C)cc1N1CCOCC1 [Example 252, N-(6′-ethoxy-2-methyl-5′-morpholino-[3,3′-bipyridin]-5-yl)-2-isopropylisonicotinamide]",0.8
7,"CCOc1ncc(-c2cc(NC(=O)c3ccnc(C(C)(C)F)c3)cnc2C)cc1N1CCOCC1 [Example 253, N-(6′-ethoxy-2-methyl-5′-morpholino-[3,3′-bipyridin]-5-yl)-2-(2-fluoropropan-2-yl)isonicotinamide]",0.7
8,"CCOc1ncc(-c2cc(NC(=O)c3ccnc(C4CC4)c3)cnc2C)cc1N1CCOCC1 [Example 254, 2-cyclopropyl-N-(6′-ethoxy-2-methyl-5′-morpholino-[3,3′-bipyridin]-5-yl)isonicotinamide]",0.5
9,"CCOc1ncc(-c2cc(NC(=O)c3ccnc(C4COC4)c3)cnc2C)cc1N1CCOCC1 [Example 255, N-(6′-ethoxy-2-methyl-5′-morpholino-[3,3′-bipyridin]-5-yl)-2-(oxetan-3-yl)isonicotinamide]",2
10,"CCOc1ncc(-c2cc(NC(=O)c3cc(N4CCN(CC)CC4)cc(C(F)(F)F)c3)cnc2C)cc1N1CCOCC1 [Example 257, N-(6′-ethoxy-2-methyl-5′-morpholino-[3,3′-bipyridin]-5-yl)-3-(4-ethylpiperazin-1-yl)-5-(trifluoromethyl)benzamide]",3.5
11,"CCOc1ncc(-c2cc(NC(=O)c3cc(CN(C)C)cc(C(F)(F)F)c3)cnc2C)cc1N1CCOCC1 [Example 258, 3-((dimethylamino)methyl)-N-(6′-ethoxy-2-methyl-5′-morpholino-[3,3′-bipyridin]-5-yl)-5-(trifluoromethyl)benzamide]",2.2
12,"CCOc1ncc(-c2cc(NC(=O)c3cnnc(C(F)(F)F)c3)cnc2C)cc1N1CCOCC1 [Example 259, N-(6′-ethoxy-2-methyl-5′-morpholino-[3,3′-bipyridin]-5-yl)-6-(trifluoromethyl)pyridazine-4-carboxamide]",1.5
13,"COc1ncc(-c2cc(NC(=O)c3ccnc(C4(C#N)CC4)c3)cnc2Cl)cc1N1CCOCC1 [Example 260, N-(2-chloro-6′-methoxy-5′-morpholino-[3,3′-bipyridin]-5-yl)-2-(1-cyanocyclopropyl)isonicotinamide]",0.8
14,"COc1ncc(-c2cc(NC(=O)c3ccnc(C(C)(F)F)c3)cnc2Cl)cc1N1CCOCC1 [Example 261, N-(2-chloro-6′-methoxy-5′-morpholino-[3,3′-bipyridin]-5-yl)-2-(1,1-difluoroethyl)isonicotinamide]",0.5
15,"COc1ncc(-c2cc(NC(=O)c3ccnc(C(C)(C)F)c3)cnc2Cl)cc1N1CCOCC1 [Example 262, N-(2-chloro-6′-methoxy-5′-morpholino-[3,3′-bipyridin]-5-yl)-2-(2-fluoropropan-2-yl)isonicotinamide]",1
16,"COc1ncc(-c2cc(NC(=O)c3cnnc(C(F)(F)F)c3)cnc2Cl)cc1N1CCOCC1 [Example 263, N-(2-chloro-6′-methoxy-5′-morpholino-[3,3′-bipyridin]-5-yl)-6-(trifluoromethyl)pyridazine-4-carboxamide]",3.3
17,"COc1ncc(-c2cc(NC(=O)c3ccnc(C(C)(C)C#N)c3)cnc2Cl)cc1N1CCOCC1 [Example 264, N-(2-chloro-6′-methoxy-5′-morpholino-[3,3′-bipyridin]-5-yl)-2-(2-cyanopropan-2-yl)isonicotinamide]",2.4

row,Structure (SMILES),IC50 [nM]
1,"Cc1ncc(NC(=O)c2ccnc(C(C)(C)C#N)c2)cc1-c1cnc(N(C)C)c(N2CCOCC2)c1 [Example 265, 2-(2-cyanopropan-2-yl)-N-(6′-(dimethylamino)-2-methyl-5′-morpholino-[3,3′-bipyridin]-5-yl)isonicotinamide]",1.1
2,"Cc1ncc(NC(=O)c2ccnc(C3(C#N)CC3)c2)cc1-c1cnc(N(C)C)c(N2CCOCC2)c1 [Example 266, 2-(1-cyanocyclopropyl)-N-(6′-(dimethylamino)-2-methyl-5′-morpholino-[3,3′-bipyridin]-5-yl)isonicotinamide]",0.5
3,Cc1ncc(NC(=O)c2ccnc(C(C)(F)F)c2)cc1-c1cnc(N(C)C)c(N2CCOCC2)c1 [Example 267],0.3
4,"Cc1ncc(NC(=O)c2ccnc(C(C)(C)F)c2)cc1-c1cnc(N(C)C)c(N2CCOCC2)c1 [Example 268, N-(6′-(dimethylamino)-2-methyl-5-morpholino-[3,3′-bipyridin]-5-yl)-2-(2-fluoropropan-2-yl)isonicotinamide]",0.6
5,"Cc1ncc(NC(=O)c2cc(CN(C)C)cc(C(F)(F)F)c2)cc1-c1cnc(N(C)C)c(N2CCOCC2)c1 [Example 269, N-(6′-(dimethylamino)-2-methyl-5′-morpholino-[3,3′-bipyridin]-5-yl)-3-((dimethylamino)methyl)-5-(trifluoromethyl)benzamide]",0.9
6,"Cc1ncc(NC(=O)c2cnnc(C(F)(F)F)c2)cc1-c1cnc(N(C)C)c(N2CCOCC2)c1 [Example 270, N-(6′-(dimethylamino)-2-methyl-5′-morpholino-[3,3′-bipyridin]-5-yl)-6-(trifluoromethyl)pyridazine-4-carboxamide]",0.2
7,"Cc1ncc(NC(=O)c2cnnc(C3CC3)c2)cc1-c1cnc(N(C)C)c(N2CCOCC2)c1 [Example 271, 6-cyclopropyl-N-(6′-(dimethylamino)-2-methyl-5′-morpholino-[3,3′-bipyridin]-5-yl)pyridazine-4-carboxamide]",0.3
8,"Cc1ncc(NC(=O)c2ccnc(C(C)(C)C#N)c2)cc1-c1cnc(OC2CCOCC2)c(N2CCOCC2)c1 [Example 272, 2-(2-cyanopropan-2-yl)-N-(2-methyl-5′-morpholino-6′-((tetrahydro-2H-pyran-4-yl)oxy)-[3,3′-bipyridin]-5-yl)isonicotinamide]",2.7
9,"Cc1ncc(NC(=O)c2ccnc(C(C)(C)F)c2)cc1-c1cnc(OC2CCOCC2)c(N2CCOCC2)c1 [Example 273, 2-(2-fluoropropan-2-yl)-N-(2-methyl-5′-morpholino-6′-((tetrahydro-2H-pyran-4-yl)oxy)-[3,3′-bipyridin]-5-yl)isonicotinamide]",1.1
10,"Cc1ccc(NC(=O)c2ccnc(S(C)(=O)=O)c2)cc1-c1cnc(OC2CCOCC2)c(N2CCOCC2)c1 [Example 274, N-(4-methyl-3-(5-morpholino-6-((tetrahydro-2H-pyran-4-yl)oxy)pyridin-3-yl)phenyl)-2-(methylsulfonyl)isonicotinamide]",0.4
11,"Cc1ccc(NC(=O)c2cnnc(C(F)(F)F)c2)cc1-c1cnc(OC2CCOCC2)c(N2CCOCC2)c1 [Example 275, N-(4-methyl-3-(5-morpholino-6-((tetrahydro-2H-pyran-4-yl)oxy)pyridin-3-yl)phenyl)-6-(trifluoromethyl)pyridazine-4-carboxamide]",0.2
12,"Cc1ccc(NC(=O)c2cnnc(C3CC3)c2)cc1-c1cnc(OC2CCOCC2)c(N2CCOCC2)c1 [Example 276, 6-cyclopropyl-N-(4-methyl-3-(5-morpholino-6-((tetrahydro-2H-pyran-4-yl)oxy)pyridin-3-yl)phenyl)pyridazine-4-carboxamide]",0.2
13,"Cc1ccc(NC(=O)c2ccnc(C(C)(C)O)c2)cc1-c1cnc(OC2CCOCC2)c(N2CCOCC2)c1 [Example 277, 2-(2-hydroxypropan-2-yl)-N-(4-methyl-3-(5-morpholino-6-((tetrahydro-2H-pyran-4-yl)oxy)pyridin-3-yl)phenyl)isonicotinamide]",0.5
14,"Cc1ncc(NC(=O)c2ccnc(C(F)(F)F)c2)cc1-c1cnc(OC2CCOCC2)c(N2C3CCC2COC3)c1 [Example 278, N-(5′-(3-oxa-8-azabicyclo[3.2.1]octan-8-yl)-2-methyl-6′-((tetrahydro-2H-pyran-4-yl)oxy)-[3,3′-bipyridin]-5-yl)-2-(trifluoromethyl)isonicotinamide]",2.4
15,"COc1ncc(-c2cc(NC(=O)c3ccnc(C(C)(C)F)c3)cnc2C)cc1N1CCOCC1 [Example 281, N-(6′-methoxy-2-methyl-5′-morpholino-[3,3′-bipyridin]-5-yl)-2-(2-fluoropropan-2-yl)isonicotinamide]",1.6
16,"CCOc1ncc(-c2cc(NC(=O)c3cnnc(C(F)(F)F)c3)cnc2C)cc1N1C2CCC1COC2 [Example 282, N-(5′-(3-oxa-8-azabicyclo[3.2.1]octan-8-yl)-6′-ethoxy-2-methyl-[3,3′-bipyridin]-5-yl)-6-(trifluoromethyl)pyridazine-4-carboxamide]",17.8
17,"COc1ncc(-c2cc(NC(=O)c3ccnc(C4(C#N)CC4)c3)cnc2C)cc1N1CCOCC1 [Example 283, 2-(1-cyanocyclopropyl)-N-(6′-methoxy-2-methyl-5-morpholino-[3,3′-bipyridin]-5-yl)isonicotinamide]",1.2
